{"source": "patent US20240043860A1", "about": "“NOVEL HYDROXYPHENYLPYRUVATE DIOXYGENASE POLYPEPTIDES AND METHODS OF USE THEREOF” (Syngenta Crop Protection AG, priority 2020, published 2024)", "test_in_all_cases": "biochemical", "key": {"[1]": {"target": "HPPD variant AVESA V162 (SEQ ID NO: 122) (Avena sativa, UniProt A0ACD5V6K6, A327R/I340E/L359M/V218I)", "experimental": "(§1) 25 ul of the overnight cultures were inoculated into fresh 96-deepwell block containing 1 ml Formedium Autoinduction Media (AIM). The AIM cultures were grown for 3h at 37° C. (900rpm) and then transferred to 20° C. overnight (900rpm) to allow protein expression. The overnight cultures were centrifuged and 500 ul of Cellytic B (Sigma Aldrich) was added to resuspend the cell pellets. The coupled HGO assay (Siehl et al, 2014) is used to generate IC50 values for the HPPD variants of interest.\n(§2) E. coli BL21 (DE3) cells were transformed with a pET24a vector containing a C-terminally his-tagged Arabidopsis HGO gene, grown and induced overnight as described for the HPPD variants above. The cell pellet was resuspended in phosphate buffered saline at pH 7.4 containing 10% Glycerol, 1mm Tris[2-carboxyethyl] phosphine-HCl (TCEP) plus 30 mM Imidazole and lysed using lysozyme/benzonase. The extract was clarified by low speed centrifugation and purified in the same buffer down a 1 ml His Gravitrap column. The bound HGO was eluted in 0.25M imidazole and the fractions pooled and beaded into liquid nitrogen. All procedures apart from the centrifugation and beading steps were carried out under a nitrogen atmosphere.\n(§3) The coupled HGO assay is carried out by adding 10 ul of HPPD extract to a 96-well plate and then adding 40 ul of reaction buffer (50 mM Bis Tris Propane, pH7.0, 25 mM sodium-L-ascorbate, 400μM mercaptoethanol, 50 μM Fe(II)SO4). The plates are left to incubate for 5 minutes on ice. […] 200 ul of HPP/HGO (197 μM hydroxyphenylpyruvic acid, 16 μl/ml Homogentisic Acid Oxidase in reaction buffer as described above) buffer is then added to the well and the reaction is regularly monitored (e.g. every 30 seconds-5 minutes) for absorbance at 330 nm for a given time period (e.g., for between 15-60 minutes). The data can then be used to calculate the IC50 value for each HPPD variant of interest."}, "[2]": {"target": "HPPD variant AVESA V180 (SEQ ID NO: 124) (Avena sativa, UniProt A0ACD5V6K6, A327R/G411A/I340E/L359M/V218I)", "experimental": "as §1, §2, §3"}, "[3]": {"target": "HPPD variant AVESA V200 (SEQ ID NO: 5) (Avena sativa, UniProt A0ACD5V6K6, A327R/I340E/L359M/V218I/V260A)", "experimental": "as §1, §2, §3"}, "[4]": {"target": "HPPD variant AVESA V208 (SEQ ID NO: 14) (Avena sativa, UniProt A0ACD5V6K6, A327R/I340E/L359M/P271N/V218I)", "experimental": "as §1, §2, §3"}, "[5]": {"target": "HPPD variant AVESA V209 (SEQ ID NO: 17) (Avena sativa, UniProt A0ACD5V6K6, A327R/I340E/L359M/R214G/V218I/V260A)", "experimental": "as §1, §2, §3"}, "[6]": {"target": "HPPD variant AVESA V296 (SEQ ID NO: 20) (Avena sativa, UniProt A0ACD5V6K6, A327R/G411A/I340E/L359Y/R214G/V218I)", "experimental": "as §1, §2, §3"}, "[7]": {"target": "HPPD variant AVESA V306 (SEQ ID NO: 32) (Avena sativa, UniProt A0ACD5V6K6, A327R/I340E/L359M/P271N/R214G/V218I)", "experimental": "as §1, §2, §3"}, "[8]": {"target": "HPPD variant AVESA V307 (SEQ ID NO: 35) (Avena sativa, UniProt A0ACD5V6K6, A327R/I340E/L359M/P271N/R214G/V218I/V260A)", "experimental": "as §1, §2, §3"}, "[9]": {"target": "HPPD variant AVESA V313 (SEQ ID NO: 38) (Avena sativa, UniProt A0ACD5V6K6, A327R/I340E/L359Y/P271N/R214G/V218I/V260A)", "experimental": "as §1, §2, §3"}, "[10]": {"target": "HPPD variant AVESA V332 (SEQ ID NO: 44) (Avena sativa, UniProt A0ACD5V6K6, A327R/I340E/K404N/L359M/P271N/R214G/V218I/V260A)", "experimental": "as §1, §2, §3"}, "[11]": {"target": "HPPD variant AVESA V349 (SEQ ID NO: 47) (Avena sativa, UniProt A0ACD5V6K6, A327R/I340E/L359M/P271N/S304T/V218I)", "experimental": "as §1, §2, §3"}, "[12]": {"target": "HPPD variant AVESA V351 (SEQ ID NO: 50) (Avena sativa, UniProt A0ACD5V6K6, A327R/G411A/I340E/L359Y/R214G/S304T/V218I)", "experimental": "as §1, §2, §3"}, "[13]": {"target": "HPPD variant AVESA V357 (SEQ ID NO: 53) (Avena sativa, UniProt A0ACD5V6K6, A327R/I340E/L359M/P271N/R214G/S304T/V218I)", "experimental": "as §1, §2, §3"}, "[14]": {"target": "HPPD variant AVESA V358 (SEQ ID NO: 56) (Avena sativa, UniProt A0ACD5V6K6, A327R/I340E/L359M/P271N/R214G/S304T/V218I/V260A)", "experimental": "as §1, §2, §3"}}}
{"smiles": "CS(=O)(=O)c1ccc(C(=O)C2C(=O)CCCC2=O)c([N+](=O)[O-])c1", "note": "[Mesotrione, mesotrione]", "values": [{"measurement": "IC50", "setting": "[1]", "result": 11.5, "unit": "µM"}, {"measurement": "IC50", "setting": "[2]", "result": 47.2, "unit": "µM"}, {"measurement": "IC50", "setting": "[3]", "result": 18.6, "unit": "µM"}, {"measurement": "IC50", "setting": "[4]", "result": "> 500", "unit": "µM"}, {"measurement": "IC50", "setting": "[5]", "result": 24.4, "unit": "µM"}, {"measurement": "IC50", "setting": "[6]", "result": 114, "unit": "µM"}, {"measurement": "IC50", "setting": "[7]", "result": "~50", "unit": "µM"}, {"measurement": "IC50", "setting": "[8]", "result": "> 500", "unit": "µM"}, {"measurement": "IC50", "setting": "[9]", "result": 31.5, "unit": "µM"}, {"measurement": "IC50", "setting": "[10]", "result": 347, "unit": "µM"}, {"measurement": "IC50", "setting": "[11]", "result": "~50", "unit": "µM"}, {"measurement": "IC50", "setting": "[12]", "result": 137, "unit": "µM"}, {"measurement": "IC50", "setting": "[13]", "result": "> 500", "unit": "µM"}, {"measurement": "IC50", "setting": "[14]", "result": 20.6, "unit": "µM"}]}
